Data published in patent US20200338084A1, “INHIBITORS OF LOW MOLECULAR WEIGHT PROTEIN TYROSINE PHOSPHATASE (LMPTP) AND USES THEREOF” (Sanford Burnham Prebys Medical Discovery Institute, priority 2018, published 2020).

Protein sequences, listed by entry. Tags and fused reporters are not part of them.
UniProt P24666, whole entry: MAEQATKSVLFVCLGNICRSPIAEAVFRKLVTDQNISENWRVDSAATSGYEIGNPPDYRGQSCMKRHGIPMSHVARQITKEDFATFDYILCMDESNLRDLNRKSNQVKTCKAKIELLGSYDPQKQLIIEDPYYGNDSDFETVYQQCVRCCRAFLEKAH

Target: human LMPTP-A (Homo sapiens, UniProt P24666)
Assay: Enzyme Assay of Inhibition of LMPTP-A
Details: phosphatase assay, OMFP or pNPP substrate, 50 mM Bis-Tris pH 6.0, 37° C.

- IC50: 1 to 20 µM
Structure (SMILES): Clc1cccc(Cl)c1Cn1cnc(NCCCCC2CCNCC2)c2ncnc1-2
